This test has as its target T1, human mGlu2 receptor (Homo sapiens, UniProt Q14416).
T1 construct: expressed in transfected cells; host or cells: CHO cells
Kind of test: [35S]GTPγS binding assay, mGluR2 PAM. It counts as biochemical. The settings on record: for GTPγS-hmGluR2 PAM Emax: maximal % effect relative to control glutamate response; for GTPγS-hmGluR2 PAM Emax / Emax: EC20 glutamate; for Emax: read-out: GTPγS-hmGluR2 PAM Emax, maximal % effect relative to control glutamate response. The method, then: The [^35S]GTPγS binding assay is a functional membrane-based assay used to study G-protein coupled receptor (GPCR) function whereby incorporation of a non-hydrolysable form of GTP, [^35S]GTPγS (guanosine 5′-triphosphate, labelled with […] ^35S), is measured.
Cells were then collected by scraping in PBS and cell suspension was centrifuged (10 min at 4000 RPM in benchtop centrifuge). Supernatant was discarded and pellet gently resuspended in 50 mM Tris-HCl, pH 7.4 by mixing with a vortex and pipetting up and down. The suspension was centrifuged at 16,000 RPM (Sorvall RC-5C plus rotor SS-34) for 10 minutes and the supernatant discarded. The pellet was homogenized in 5 mM Tris-HCl, pH 7.4 using an ultra-turrax homogenizer and centrifuged again (18,000 RPM, 20 min, 4° C.). The final pellet was resuspended in 50 mM Tris-HCl, pH 7.4 and stored at-80° C. in appropriate aliquots before use. Protein concentration was determined by the Bradford method (Bio-Rad, USA) with bovine serum albumin as standard.
Measurement of mGluR2 positive allosteric modulatory activity of test compounds was performed as follows. Test compounds and glutamate were diluted in assay buffer containing 10 mM HEPES acid, 10 mM HEPES salt, pH 7.4, 100 mM NaCl, 3 mM MgCl2 and 10 μM GDP. Human mGlu2 receptor-containing membranes were thawed on ice and diluted in assay buffer supplemented with 14 μg/ml saponin. Membranes were pre-incubated with compound alone or together with a predefined (˜EC20) concentration of glutamate (PAM assay) for 30 min at 30° C. After addition of [^35S] GTPγS (f.c. 0.1 nM), assay mixtures were shaken briefly and further incubated to allow [^35S] GTPγS incorporation on activation (30 minutes, 30° C.). Final assay mixtures contained 7 μg of membrane protein in 10 mM HEPES acid, 10 mM HEPES salt, pH 7.4, 100 mM NaCl, 3 mM MgCl2, 10 µM GDP and 2 μg/ml saponin. Total reaction volume was 200 μl. Reactions were terminated by rapid filtration through Unifilter-96 GF/B plates (Perkin Elmer, Massachusetts, USA) using a 96-well filtermate universal harvester. Filters were washed 6 times with ice-cold 10 mM NaH2PO4/10 mM Na2HPO4, pH 7.4. Filters were then air-dried, and 40 μl of liquid scintillation cocktail (Microscint-O) was added to each well. Membrane-bound radioactivity was counted in a Microplate Scintillation and Luminescence Counter from Perkin Elmer.
The concentration-response curves of representative compounds of the present invention-obtained in the presence of EC20 of mGluR2 agonist glutamate to determine positive allosteric modulation (PAM)—were generated using the Lexis software interface (developed at J&J). Data were calculated as % of the control glutamate response, defined as the maximal response that is generated upon addition of glutamate alone. Sigmoid concentration-response curves plotting these percentages versus the log concentration of the test compound were analyzed using non-linear regression analysis. The concentration producing half-maximal effect is then calculated as EC50. The pEC50 values below were calculated as the −log EC50, when the EC50 is expressed in M. Emax is defined as relative maximal effect (i.e. maximal % effect relative to the control glutamate response).
Background: GTPγS resists hydrolysis and so accumulates on activated G proteins.

By UniProt entry, the sequences of proteins in these tests, tags left out. Residues count along the entry.
UniProt Q14416, 19-872: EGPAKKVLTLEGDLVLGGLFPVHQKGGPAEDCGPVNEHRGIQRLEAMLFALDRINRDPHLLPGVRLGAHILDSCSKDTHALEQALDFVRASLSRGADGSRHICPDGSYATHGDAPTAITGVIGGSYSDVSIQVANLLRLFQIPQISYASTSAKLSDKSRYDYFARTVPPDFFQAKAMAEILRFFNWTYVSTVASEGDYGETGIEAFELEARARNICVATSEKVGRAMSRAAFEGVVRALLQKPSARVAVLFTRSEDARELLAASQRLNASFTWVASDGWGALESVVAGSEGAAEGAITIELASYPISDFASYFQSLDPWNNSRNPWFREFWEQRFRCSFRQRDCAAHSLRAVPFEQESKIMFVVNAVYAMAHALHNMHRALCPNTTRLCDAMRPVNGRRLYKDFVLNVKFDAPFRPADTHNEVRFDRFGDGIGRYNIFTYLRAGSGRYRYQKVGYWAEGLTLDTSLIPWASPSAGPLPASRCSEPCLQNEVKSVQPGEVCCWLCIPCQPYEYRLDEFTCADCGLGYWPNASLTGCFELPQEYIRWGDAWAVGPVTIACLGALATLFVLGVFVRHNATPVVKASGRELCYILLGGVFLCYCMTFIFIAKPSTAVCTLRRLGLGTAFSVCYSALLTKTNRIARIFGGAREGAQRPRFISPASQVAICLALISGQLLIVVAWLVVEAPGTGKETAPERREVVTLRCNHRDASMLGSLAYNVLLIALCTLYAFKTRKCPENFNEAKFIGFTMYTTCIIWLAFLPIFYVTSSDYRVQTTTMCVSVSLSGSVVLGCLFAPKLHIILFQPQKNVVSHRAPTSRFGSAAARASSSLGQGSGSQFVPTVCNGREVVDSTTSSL

The term Emax denotes the greatest response seen or fitted, relative to the assay's reference.

Consider `CCc1nnc2c(C(F)(F)F)c(C(C)Oc3c(F)cc(F)cc3F)ccn12` (single isomer, unassigned) [Co. No. 28-b, 3-Ethyl-8-(trifluoromethyl)-7-[(1*R)-1-(2,4,6-trifluorophenoxy)ethyl]-[1,2,4]triazolo-[4,3-a]pyridine], for which the “GTPγS-hmGluR2 PAM Emax” value (listed as 28-b) was 234%.
On to `CCc1nnc2c(C(F)(F)F)c(C(C)Oc3c(F)cc(F)cc3F)ccn12` (single isomer, unassigned) [Co. No. 29-b, 3-Ethyl-8-(trifluoromethyl)-7-[(1*S)-1-(2,4,6-trifluorophenoxy)ethyl]-[1,2,4]triazolo-[4,3-a]pyridine], for which the “GTPγS-hmGluR2 PAM Emax” value (listed as 29-b) amounted to 77%.
Turning to `CCc1nnc2c(C(F)(F)F)c(C(C)Oc3ccc(F)cc3F)ccn12` (single isomer, unassigned) [Co. No. 27-b, 7-[(1*S)-1-(2,4-Difluorophenoxy)ethyl]-3-ethyl-8-(trifluoromethyl)[1,2,4]triazolo-[4,3-a]pyridine], the “GTPγS-hmGluR2 PAM Emax” value was determined as 51%.
Turning to `CCc1nnc2c(C(F)(F)F)c(C(C)Oc3ccc(F)cc3F)ccn12` (stereo not drawn) [Co. No. 24-b, 7-[1-(2,4-Difluorophenoxy)ethyl]-3-ethyl-8-(trifluoromethyl)[1,2,4]triazolo[4,3-a]pyridine], the Emax is 193%.
Turning to `CCc1nnc2c(C(F)(F)F)c(C(C)Oc3ccc(F)cc3F)ccn12` (single isomer, unassigned) [Co. No. 26-b, 7-[(1*R)-1-(2,4-Difluorophenoxy)ethyl]-3-ethyl-8-(trifluoromethyl)[1,2,4]triazolo-[4,3-a]pyridine], the maximal effect (Emax) was 214%. The EC50 (in presence of EC20 glutamate, read-out: GTPγS-hmGluR2 PAM pEC50 (converted)) is 166 nM.

(Values after US20250288584A1, “COMBINATIONS COMPRISING POSITIVE ALLOSTERIC MODULATORS OR ORTHOSTERIC AGONISTS OF METABOTROPIC GLUTAMATERGIC RECEPTOR SUBTYPE 2 AND THEIR USE” (JANSSEN PHARMACEUTICA NV, priority 2014, published 2025).)
